The source of these data is US5578288, “Metal-binding targeted polypeptide constructs” (Cytogen Corporation, dated 1996).

The target in this assay is receptor on murine NIH-3T3 fibroblast cells (ATCC No. CCL92) to which 125I-GRP binds (murine) (UniProt P21729). The assay can be described thus: 125I-GRP at 0.45 pM on NIH-3T3 cells, no inhibitor, filter assay.

125I-GRP (Amersham) (ligand) gave a % BOUND of 5.9% and an AVG CPM BOUND of 3900 CPM.
